Test results as given in US6780883B2, “Amide inhibitors of microsomal triglyceride transfer protein” (Warner-Lambert Company, priority 1998, dated 2004).

Sequences of proteins named here, by UniProt entry; tags and fusion partners are left off. Residues count along the entry.
UniProt P04114, 28-4563: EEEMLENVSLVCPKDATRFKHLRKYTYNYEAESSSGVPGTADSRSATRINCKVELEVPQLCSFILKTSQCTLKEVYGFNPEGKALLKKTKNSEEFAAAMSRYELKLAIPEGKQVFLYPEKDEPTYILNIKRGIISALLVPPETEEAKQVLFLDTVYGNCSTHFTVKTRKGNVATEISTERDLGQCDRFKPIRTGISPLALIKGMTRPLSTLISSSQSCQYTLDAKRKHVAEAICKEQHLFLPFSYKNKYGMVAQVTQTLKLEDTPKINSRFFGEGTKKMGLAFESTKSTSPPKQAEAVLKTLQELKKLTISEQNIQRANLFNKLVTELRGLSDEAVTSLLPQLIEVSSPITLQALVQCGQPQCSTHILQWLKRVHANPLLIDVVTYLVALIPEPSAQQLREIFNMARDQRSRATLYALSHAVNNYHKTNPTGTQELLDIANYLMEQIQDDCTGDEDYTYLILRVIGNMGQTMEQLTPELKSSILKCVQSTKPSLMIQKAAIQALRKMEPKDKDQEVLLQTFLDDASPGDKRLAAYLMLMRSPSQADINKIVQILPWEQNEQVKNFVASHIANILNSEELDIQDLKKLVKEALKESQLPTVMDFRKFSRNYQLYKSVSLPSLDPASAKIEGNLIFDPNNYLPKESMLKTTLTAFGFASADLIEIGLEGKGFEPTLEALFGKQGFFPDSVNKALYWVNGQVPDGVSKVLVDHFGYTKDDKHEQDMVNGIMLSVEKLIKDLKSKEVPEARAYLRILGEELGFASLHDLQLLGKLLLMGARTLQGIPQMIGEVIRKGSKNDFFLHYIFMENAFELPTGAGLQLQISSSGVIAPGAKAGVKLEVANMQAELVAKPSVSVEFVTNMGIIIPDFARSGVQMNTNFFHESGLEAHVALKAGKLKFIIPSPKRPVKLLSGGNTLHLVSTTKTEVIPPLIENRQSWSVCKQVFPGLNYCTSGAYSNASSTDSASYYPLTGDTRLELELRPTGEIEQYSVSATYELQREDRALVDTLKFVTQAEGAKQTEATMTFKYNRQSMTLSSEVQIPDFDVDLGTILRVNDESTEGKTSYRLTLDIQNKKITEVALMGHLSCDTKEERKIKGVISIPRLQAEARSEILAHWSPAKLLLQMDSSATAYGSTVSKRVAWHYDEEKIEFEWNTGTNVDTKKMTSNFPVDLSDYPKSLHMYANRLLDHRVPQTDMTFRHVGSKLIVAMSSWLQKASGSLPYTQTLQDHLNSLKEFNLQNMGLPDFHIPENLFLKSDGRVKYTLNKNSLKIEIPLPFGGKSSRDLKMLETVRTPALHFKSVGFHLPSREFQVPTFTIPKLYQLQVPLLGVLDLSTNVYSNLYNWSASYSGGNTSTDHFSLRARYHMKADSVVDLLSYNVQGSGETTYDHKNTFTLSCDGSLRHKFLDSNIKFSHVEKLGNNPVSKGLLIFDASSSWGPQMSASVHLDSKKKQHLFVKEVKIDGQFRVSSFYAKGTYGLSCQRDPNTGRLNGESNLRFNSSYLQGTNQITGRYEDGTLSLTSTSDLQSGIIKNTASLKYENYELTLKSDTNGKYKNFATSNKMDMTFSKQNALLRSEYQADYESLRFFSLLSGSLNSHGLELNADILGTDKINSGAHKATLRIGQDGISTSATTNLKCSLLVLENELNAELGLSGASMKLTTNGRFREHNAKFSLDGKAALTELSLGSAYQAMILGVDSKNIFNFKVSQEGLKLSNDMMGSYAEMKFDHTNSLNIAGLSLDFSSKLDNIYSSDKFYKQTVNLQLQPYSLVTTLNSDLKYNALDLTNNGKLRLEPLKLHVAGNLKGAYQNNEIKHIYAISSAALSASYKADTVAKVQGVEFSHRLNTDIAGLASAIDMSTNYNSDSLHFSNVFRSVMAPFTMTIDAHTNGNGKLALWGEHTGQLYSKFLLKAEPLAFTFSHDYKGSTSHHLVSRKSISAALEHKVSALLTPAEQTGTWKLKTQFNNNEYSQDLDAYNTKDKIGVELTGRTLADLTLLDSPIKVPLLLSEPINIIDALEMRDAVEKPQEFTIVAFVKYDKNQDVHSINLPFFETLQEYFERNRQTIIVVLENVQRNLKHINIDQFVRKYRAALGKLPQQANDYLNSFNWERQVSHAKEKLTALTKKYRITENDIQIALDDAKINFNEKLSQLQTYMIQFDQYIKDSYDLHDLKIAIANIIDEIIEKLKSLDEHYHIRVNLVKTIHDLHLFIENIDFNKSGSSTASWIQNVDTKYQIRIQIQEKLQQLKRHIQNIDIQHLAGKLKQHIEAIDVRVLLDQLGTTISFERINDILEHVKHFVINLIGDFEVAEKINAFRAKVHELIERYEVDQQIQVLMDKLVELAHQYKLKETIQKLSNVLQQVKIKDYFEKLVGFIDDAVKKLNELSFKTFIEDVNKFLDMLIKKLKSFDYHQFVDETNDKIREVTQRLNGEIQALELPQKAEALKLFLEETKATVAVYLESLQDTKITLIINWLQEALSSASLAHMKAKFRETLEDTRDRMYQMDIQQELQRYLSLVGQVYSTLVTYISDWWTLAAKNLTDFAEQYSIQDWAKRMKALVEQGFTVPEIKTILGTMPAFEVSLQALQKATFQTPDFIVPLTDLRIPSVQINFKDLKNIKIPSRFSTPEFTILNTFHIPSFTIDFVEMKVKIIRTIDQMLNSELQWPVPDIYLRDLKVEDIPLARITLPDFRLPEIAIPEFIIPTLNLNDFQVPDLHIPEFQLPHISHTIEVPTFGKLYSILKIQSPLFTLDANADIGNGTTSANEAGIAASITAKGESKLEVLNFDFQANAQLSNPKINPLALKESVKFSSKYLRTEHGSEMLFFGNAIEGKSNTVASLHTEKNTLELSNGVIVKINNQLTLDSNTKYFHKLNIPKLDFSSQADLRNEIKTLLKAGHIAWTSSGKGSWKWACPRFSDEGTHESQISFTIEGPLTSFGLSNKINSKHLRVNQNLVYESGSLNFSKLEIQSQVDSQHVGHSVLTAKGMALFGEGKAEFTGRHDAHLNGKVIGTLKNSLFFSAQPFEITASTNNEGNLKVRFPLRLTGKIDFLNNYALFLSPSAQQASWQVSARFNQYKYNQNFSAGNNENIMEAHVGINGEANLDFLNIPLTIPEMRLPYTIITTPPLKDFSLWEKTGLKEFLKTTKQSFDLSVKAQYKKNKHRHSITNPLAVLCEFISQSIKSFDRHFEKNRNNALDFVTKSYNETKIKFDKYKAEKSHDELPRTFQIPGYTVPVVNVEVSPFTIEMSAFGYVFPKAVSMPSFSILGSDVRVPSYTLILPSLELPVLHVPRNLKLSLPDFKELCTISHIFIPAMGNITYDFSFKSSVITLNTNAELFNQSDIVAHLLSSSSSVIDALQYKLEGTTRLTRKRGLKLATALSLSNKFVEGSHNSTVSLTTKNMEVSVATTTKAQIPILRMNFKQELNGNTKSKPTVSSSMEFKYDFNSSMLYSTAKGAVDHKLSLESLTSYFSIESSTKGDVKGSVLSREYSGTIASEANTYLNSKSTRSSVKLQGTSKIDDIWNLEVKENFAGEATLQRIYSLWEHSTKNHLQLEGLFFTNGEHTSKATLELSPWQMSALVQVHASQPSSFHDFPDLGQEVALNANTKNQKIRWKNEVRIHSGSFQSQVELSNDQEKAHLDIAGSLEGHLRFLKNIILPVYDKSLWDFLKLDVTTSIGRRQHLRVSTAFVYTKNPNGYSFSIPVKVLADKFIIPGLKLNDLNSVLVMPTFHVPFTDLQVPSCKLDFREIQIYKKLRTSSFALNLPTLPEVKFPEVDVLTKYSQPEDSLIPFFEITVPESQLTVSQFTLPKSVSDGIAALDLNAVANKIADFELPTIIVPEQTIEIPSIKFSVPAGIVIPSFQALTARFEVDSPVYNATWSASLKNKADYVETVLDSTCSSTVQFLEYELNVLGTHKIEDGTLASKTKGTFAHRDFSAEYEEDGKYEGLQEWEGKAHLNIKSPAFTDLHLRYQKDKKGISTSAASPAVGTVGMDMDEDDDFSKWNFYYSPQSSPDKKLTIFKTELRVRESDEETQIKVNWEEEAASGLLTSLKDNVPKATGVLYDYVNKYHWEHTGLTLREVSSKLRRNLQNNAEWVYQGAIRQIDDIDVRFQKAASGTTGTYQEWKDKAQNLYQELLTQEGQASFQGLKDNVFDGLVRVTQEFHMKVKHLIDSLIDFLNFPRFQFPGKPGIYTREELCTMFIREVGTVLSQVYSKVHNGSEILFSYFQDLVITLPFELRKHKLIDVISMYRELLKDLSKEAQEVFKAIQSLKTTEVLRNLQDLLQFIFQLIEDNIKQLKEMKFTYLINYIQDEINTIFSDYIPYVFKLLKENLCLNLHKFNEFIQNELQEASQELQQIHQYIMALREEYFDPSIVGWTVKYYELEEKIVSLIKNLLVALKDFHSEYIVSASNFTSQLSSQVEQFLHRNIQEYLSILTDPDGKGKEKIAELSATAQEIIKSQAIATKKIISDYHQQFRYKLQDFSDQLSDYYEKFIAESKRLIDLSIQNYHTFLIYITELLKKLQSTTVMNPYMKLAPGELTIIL
UniProt P08519, 20-2040: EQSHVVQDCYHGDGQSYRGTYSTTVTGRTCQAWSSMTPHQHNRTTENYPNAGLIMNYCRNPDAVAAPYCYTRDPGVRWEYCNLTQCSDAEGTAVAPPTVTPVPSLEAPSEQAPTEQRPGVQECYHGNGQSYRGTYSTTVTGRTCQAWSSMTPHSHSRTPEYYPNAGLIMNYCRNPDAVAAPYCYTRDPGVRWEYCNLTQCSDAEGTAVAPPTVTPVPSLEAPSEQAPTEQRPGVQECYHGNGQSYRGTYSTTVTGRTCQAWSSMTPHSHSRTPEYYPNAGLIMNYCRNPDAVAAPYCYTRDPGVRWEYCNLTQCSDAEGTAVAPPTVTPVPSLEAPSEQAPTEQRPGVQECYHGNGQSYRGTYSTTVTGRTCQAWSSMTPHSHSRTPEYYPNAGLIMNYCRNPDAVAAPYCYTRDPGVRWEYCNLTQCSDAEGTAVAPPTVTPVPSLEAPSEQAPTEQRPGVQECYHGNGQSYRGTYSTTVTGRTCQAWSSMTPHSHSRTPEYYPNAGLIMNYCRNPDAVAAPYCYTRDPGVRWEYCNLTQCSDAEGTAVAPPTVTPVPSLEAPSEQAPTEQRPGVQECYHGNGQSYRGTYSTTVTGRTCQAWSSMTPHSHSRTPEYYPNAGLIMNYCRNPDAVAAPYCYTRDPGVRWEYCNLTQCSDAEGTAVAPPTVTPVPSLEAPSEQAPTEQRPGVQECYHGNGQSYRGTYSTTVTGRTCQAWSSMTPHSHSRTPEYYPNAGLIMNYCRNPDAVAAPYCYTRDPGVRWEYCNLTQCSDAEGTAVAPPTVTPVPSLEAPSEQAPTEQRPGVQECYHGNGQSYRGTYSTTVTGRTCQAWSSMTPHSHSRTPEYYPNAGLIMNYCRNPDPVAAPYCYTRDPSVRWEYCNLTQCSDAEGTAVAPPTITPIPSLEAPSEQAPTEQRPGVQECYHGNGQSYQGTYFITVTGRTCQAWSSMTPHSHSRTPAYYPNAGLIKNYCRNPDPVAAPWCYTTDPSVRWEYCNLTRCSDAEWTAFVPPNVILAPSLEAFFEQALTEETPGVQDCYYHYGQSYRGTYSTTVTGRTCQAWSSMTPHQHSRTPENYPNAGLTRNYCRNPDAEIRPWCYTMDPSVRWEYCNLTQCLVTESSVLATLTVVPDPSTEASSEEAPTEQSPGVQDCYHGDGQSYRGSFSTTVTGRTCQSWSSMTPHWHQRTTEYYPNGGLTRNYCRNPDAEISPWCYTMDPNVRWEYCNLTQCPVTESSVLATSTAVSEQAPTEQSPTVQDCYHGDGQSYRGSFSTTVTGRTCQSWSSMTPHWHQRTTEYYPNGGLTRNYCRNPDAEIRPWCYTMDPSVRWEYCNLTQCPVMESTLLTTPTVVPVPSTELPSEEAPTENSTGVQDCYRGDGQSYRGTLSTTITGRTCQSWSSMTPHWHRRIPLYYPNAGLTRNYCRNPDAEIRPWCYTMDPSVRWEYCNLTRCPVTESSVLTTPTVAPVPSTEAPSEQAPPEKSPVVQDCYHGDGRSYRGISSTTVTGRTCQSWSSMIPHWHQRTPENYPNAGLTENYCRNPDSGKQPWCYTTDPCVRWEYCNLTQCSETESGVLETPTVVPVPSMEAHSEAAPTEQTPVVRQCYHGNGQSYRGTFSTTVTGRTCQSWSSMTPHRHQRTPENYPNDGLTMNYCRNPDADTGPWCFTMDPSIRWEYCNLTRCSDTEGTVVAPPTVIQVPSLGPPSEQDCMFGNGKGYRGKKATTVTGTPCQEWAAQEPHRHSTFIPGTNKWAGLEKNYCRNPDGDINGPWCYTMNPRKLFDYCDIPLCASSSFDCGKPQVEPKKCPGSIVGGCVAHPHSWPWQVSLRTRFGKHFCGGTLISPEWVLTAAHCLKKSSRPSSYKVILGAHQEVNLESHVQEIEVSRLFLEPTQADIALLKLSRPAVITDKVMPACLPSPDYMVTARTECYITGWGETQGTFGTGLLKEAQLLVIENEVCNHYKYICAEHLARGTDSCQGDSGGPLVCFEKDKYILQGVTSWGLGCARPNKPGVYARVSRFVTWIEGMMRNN

Molecular target: apolipoprotein(a), [apo(a)], apolipoproteinB-100, [apoB-100], coupling reaction that generates Lp(a) (Homo sapiens, UniProt P04114+P08519)
Experiment: LPABC screen: lipoprotein(a) biochemical coupling assay, Lp(a) content by ELISA
Conditions: recombinant apo(a) 17-kringle (293 cell media) + HepG2 conditioned media, 67 minutes, 37° C., 0.3 to 50 μM compound; read-out: Lp ABC IC50
Description: LPABC Screen The lipoprotein(a), [Lp(a)], biochemical coupling assay (LPABC) is used to characterize inhibitors of the apolipoprotein(a), [apo(a)], apolipoproteinB-100, [apoB-100], coupling reaction that generates Lp(a). Conditioned media from 293 cells (ATCC CRL-1573), permanently transfected with an apo(a) 17-kringle cDNA expression construct (pcDNA-AMP, In Vitrogen, Carlsbad, Calif.) using standard molecular biology techniques, was used as a source of recombinant apo(a) is diluted 1:3 with phosphate buffered saline (PBS) and 90 μL is pipetted into each well of a 96-well plate and placed into a 37° C. incubator for 10 minutes. Twenty microliters of a 0.3 to 50 μM solution of a compound of the present invention in PBS is added to the warmed plate. Ninety microliters of HepG2 (ATCC HB-8065) cell conditioned media diluted 1:3 with PBS is added to the apo(a)/compound mixture and mixed by pipetting up and down 5 times. The reaction is incubated for 67 minutes in a 37° C. incubator. A 100 μL aliquot of the reaction is removed and assayed for its Lp(a) content by an enzyme linked immunosorbent assay (ELISA).

N-Biphenyl-2-ylmethyl-N-(3,4-dimethoxy-phenyl)-2-phenylmethanesulfinyl- [Example 143]
IC50: > 15 µM
